# Apparent affinities of Ab-91 variants for a coronavirus HR2 peptide

Antigen: PDVDLGDISGINAS, a 14-residue peptide of the SARS-CoV-2 spike HR2 region.

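The starting antibody came from a phage panning campaign against this peptide. The library (AAYL51) carries one to three amino acid substitutions per variant, with no insertions or deletions. The assay is AlphaSeq: two haploid yeast populations carry antibody and antigen on their surface. The frequency of each diploid, read from paired DNA barcodes, reflects how well the two displayed proteins bind. Read counts were normalised to the haploid input and turned into Kd by a linear fit to BCL2-family pairs of known affinity, for each replicate. The assay was run in three technical replicates.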

The variants keep the light chain, the linker and the frameworks of Ab-91 (scFv order VL, three GGGGS repeats, VH).
VL: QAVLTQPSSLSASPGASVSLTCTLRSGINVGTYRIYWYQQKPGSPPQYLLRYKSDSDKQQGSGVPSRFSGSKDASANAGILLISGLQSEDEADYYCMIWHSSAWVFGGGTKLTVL
VH: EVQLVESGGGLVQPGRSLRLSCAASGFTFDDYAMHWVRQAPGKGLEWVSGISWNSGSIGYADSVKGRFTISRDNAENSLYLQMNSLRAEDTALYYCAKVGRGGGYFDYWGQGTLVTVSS

Variants are written as CDR1, CDR2 and CDR3 of the heavy chain (limits as in the source). Parent: GFTFDDYAMH, GISWNSGSIGYADSVK, VGRGGGYFDY. Affinities are written as log10 Kd with Kd in nM; a lower number is a better binder. A mean of the replicates is given; it leaves out those without a signal. "no signal" marks a missing value. The strain was present, yet no cells mated with the target were sequenced in any replicate, which points to weak or no binding. Three control strains display no target. For library AAYL51, 21% of the pairings with them gave a signal, with a median of 4.54 and one signal in twenty below 3.26, so weak values seen in few replicates may be background.

"mean, log10 nM",replicates with signal,CDR-H1,CDR-H2,CDR-H3
4.19,1/3,GFLFDDYAMH,GISWNSGSIVYADSVK,VGRYGGYFDY
2.49,1/3,GFTNDDYAMH,GISWNSGSIGYAESVK,VGRGGGYSDY
1.62,3/3,GFTFDDYAMH,GISWNQGSIGYADDVK,VGRAGGYFDY
no signal,0/3,GFTFDDYAMH,GISWNSGSNGYAQSEK,VGRGGGYFDY
3.70,1/3,GFTFDGYASH,GISWNSGSIGYADSVK,VGRGQGYFDY
4.67,3/3,GFTFDDYAMH,GASWISGSEGYADSVK,VGRGGGYFDY
3.00,1/3,HFTFDDYAMH,GASWHSGSIGYADSVK,VGRGGGYFDY
5.89,2/3,GFTFDDYAMH,HISWNSGSMGYADSVK,VGRCGGYFDY
5.32,1/3,GFTFWDYAWD,GISWNSGSIGYADSVK,VGRGGGYFDY
1.02,3/3,GFTFDDYAMH,GISWNSGSIGYADSVK,VARGGGEFCY
no signal,0/3,GFTFDDYAMH,GISWNSGSIGNADQVK,RGRGGGYFDY
no signal,0/3,GFTFDLYAMH,GIWWNSGSIGYADSVW,VGRGGGYFDY
no signal,0/3,GFTFDDYAMH,GISWWSGSIGYADSVK,VGRGGGLFDY
4.63,2/3,GFTFDDYAMH,GISWNSGSIGYAWSVK,VGRDGTYFDY
no signal,0/3,GFTFDDYAMH,GISWNSGSIGYHDSVK,WGRGWGYFDY
no signal,0/3,GFTFDDYAMH,GISWNSGSINYADAVK,VGRGGGYFDY
no signal,0/3,NFTFDDWAMH,GISTNSGSIGYADSVK,VGRGGGYFDY
4.79,1/3,GFTADDDAMH,GISWNSGSIGYADSVK,VMRGGGYFDY
no signal,0/3,GFTFDDYAMH,GISWNSGSQGYADSVK,VGRGGGYFFR
5.41,1/3,GFTFDDYDMH,GISWNSGSIGYAQSVK,VGRGGGYFHY
3.95,1/3,GFTFDDYAMH,GISWNAYSIGYADSVK,VGRGGGYFWY
5.03,3/3,GFTCDDYAMH,GISWNSGSIGYAECVK,VGRGGGYFDY
no signal,0/3,GFTDDDYAEH,GISWNSGSIGYADSVK,VGRGSGYFDY
no signal,0/3,GFTFDEYAMH,GISWNSGSIGYADSRK,VGRGGGYHDY
2.58,3/3,GFTFDDYAMH,GISWDSGIIGEADSVK,VGRGGGYFDY
no signal,0/3,GFNFDDYAMF,GISWNSGSIGYADSVK,VGRGGGYFDY
no signal,0/3,GFTDDDYAMH,GISWNSISIGYADSVK,VGRGGGYGDY
1.80,3/3,GFTFDDYAMH,GISWNSRSIGYADSVK,AGRGGGLFDY
no signal,0/3,GFVFDDYAMH,GISWNSGSIGYADSVK,VGGDGGYFDY
4.68,2/3,GFTIDTYAMH,GISWNSGSIGAADSVK,VGRGGGYFDY
no signal,0/3,GFTFDDKAMH,GISWNSGSIGYADSRK,VGRGGGYQDY
4.46,1/3,SFTFDDYAMH,GISWNSGSIGYADSVK,TGRGGGYFDP
4.60,2/3,GFTFDDYAMH,GISWNSGSIGYADSVT,VGMGGGYFDP
no signal,0/3,GFTFDDYAMW,GIQWNSGSIGYSDSVK,VGRGGGYFDY
4.29,2/3,GFTFDDYAMH,GISWNSGSIGYAISVK,VGRGGGLFDY
no signal,0/3,GFTFDDYAMH,GISTNSGSIGYADSVK,VMRGNGYFDY
no signal,0/3,GFTFDDYAMY,GISWTSGSIGYADSVK,VGRGGGYFLY
3.51,1/3,GFTFFDYAYH,GISWNSGSIGYADSVK,MGRGGGYFDY
2.62,1/3,GFTFDDYAMT,GISWNSGSIGYADSVK,VGEGGGYFDY
no signal,0/3,GFTFDDYAMH,GISHNSGSIGYADSVK,HGRGGGYFDY
3.73,1/3,GFTFDDYAMH,GYSWNSGQIGYADSGK,VGRGGGYFDY
no signal,0/3,KFTFDDYAMH,GISWNSGSIGYNDSVK,QGRGGGYFDY
no signal,0/3,GFTFDDYTMH,GISWNSGIIGYADSVK,VGRGVGYFDY
3.40,3/3,GFTFDDYAMH,GISWNSGSIGYADSVK,MGIGGGYFDF
no signal,0/3,GFTFDDYAMH,GISWNSGQCGYADPVK,VGRGGGYFDY
4.94,2/3,GFTFDNYAMH,GIGWNSGSIGYADSVK,VGRGGGYGDY
4.46,2/3,GFTFSDYAMH,GISWNSGSIGYADSVK,VGRWGGYFRY
4.00,1/3,GFTFDDYAMH,GISWNSGSIGYDDSVK,VQRGGRYFDY
4.48,2/3,GFTFDDYAMH,GISWNSGSICYCDSVK,VGRGGGYFDY
no signal,0/3,GFTFDDYHMH,GISWNSGSIGYADSVK,VGRGVGYFDY
no signal,0/3,GFTFDDYAMH,GHSWNSGSWGYADSVK,VPRGGGYFDY
3.25,1/3,GFTFFDYAMH,GISWNSGSIGYADSVK,VGGGGGYFDD
5.49,1/3,GFTFDDYAHH,GISWNSGSIGYADSVK,VGRGGGYFTY
no signal,0/3,GFTFDDYAMH,GISWNSSSIGYADSVK,VSRGGGYPDY
no signal,0/3,GFTFDDYAMH,GRSTDSGSIGYADSVK,VGRGGGYFDY
4.83,2/3,GFTFDDYAMH,TISWNSGSIGYADGVK,VGRGGIYFDY
2.29,3/3,GFTFDMYAMH,GISWNSGSIGFADSVA,VGRGGGYFDY
no signal,0/3,GFTFDDYATH,GISWNEGSIGYADTVK,VGRGGGYFDY
no signal,0/3,GFTFDDTAMH,GISWNSKSIGYADSVK,VGRGGGYGDY
0.57,3/3,GFAFDKYAMH,GISWNSGSIGYADSVK,VGWGGGYFDY
5.20,2/3,EFTKDDYAMH,GISWNSGLIGYADSVK,VGRGGGYFDY
2.17,3/3,GFTFDDYAMH,GISWNSGSHGYACSVK,VGYGGGYFDY
5.55,3/3,GFTFDDEAMH,GISWNSGWGGYADSVK,VGRGGGYFDY
4.42,2/3,GFTFDDGDMH,GISWNSGDIGYADSVK,VGRGGGYFDY
no signal,0/3,GFTFDDYAMH,GISWNSCSRGYADSVK,WGRGGGYFDY
4.31,2/3,GFTFDDYAMH,YISWNSGSIPYAVSVK,VGRGGGYFDY
3.76,1/3,GFTFDMYAMH,GISWISGSIGYADSVK,VGRMGGYFDY
1.31,3/3,GFTFNDYAMH,GISWNSGSIGYADSVG,VGRGGRYFDY
4.42,2/3,GFTFDDYAMH,GTSWNSRSIGYADSVK,VGRGGGLFDY
4.21,2/3,GFTFDDYAMH,GISWNSGSIGYADSVK,VTRGPWYFDY
4.30,1/3,GFTFADYASH,GISWNSGSIGYFDSVK,VGRGGGYFDY
3.65,3/3,GFTFDDYAMH,GISWNCGSIGYADSTK,VGRKGGYFDY

The last 10 entries again:

CDR-H1,CDR-H2,CDR-H3,"mean, log10 nM",replicates with signal
GFTFDDEAMH,GISWNSGWGGYADSVK,VGRGGGYFDY,5.55,3/3
GFTFDDGDMH,GISWNSGDIGYADSVK,VGRGGGYFDY,4.42,2/3
GFTFDDYAMH,GISWNSCSRGYADSVK,WGRGGGYFDY,no signal,0/3
GFTFDDYAMH,YISWNSGSIPYAVSVK,VGRGGGYFDY,4.31,2/3
GFTFDMYAMH,GISWISGSIGYADSVK,VGRMGGYFDY,3.76,1/3
GFTFNDYAMH,GISWNSGSIGYADSVG,VGRGGRYFDY,1.31,3/3
GFTFDDYAMH,GTSWNSRSIGYADSVK,VGRGGGLFDY,4.42,2/3
GFTFDDYAMH,GISWNSGSIGYADSVK,VTRGPWYFDY,4.21,2/3
GFTFADYASH,GISWNSGSIGYFDSVK,VGRGGGYFDY,4.30,1/3
GFTFDDYAMH,GISWNCGSIGYADSTK,VGRKGGYFDY,3.65,3/3

The measurements come from Engelhart et al. 2022 (doi:10.1038/s41597-022-01779-4) through the FLAb antibody collection.